BindingDB's records for doi:10.1016/0960-894X(96)00151-5 (1996)

Molecular target: T1, Protein kinase C epsilon type (Homo sapiens, UniProt Q02156)
T1 sequence (Q02156 whole entry): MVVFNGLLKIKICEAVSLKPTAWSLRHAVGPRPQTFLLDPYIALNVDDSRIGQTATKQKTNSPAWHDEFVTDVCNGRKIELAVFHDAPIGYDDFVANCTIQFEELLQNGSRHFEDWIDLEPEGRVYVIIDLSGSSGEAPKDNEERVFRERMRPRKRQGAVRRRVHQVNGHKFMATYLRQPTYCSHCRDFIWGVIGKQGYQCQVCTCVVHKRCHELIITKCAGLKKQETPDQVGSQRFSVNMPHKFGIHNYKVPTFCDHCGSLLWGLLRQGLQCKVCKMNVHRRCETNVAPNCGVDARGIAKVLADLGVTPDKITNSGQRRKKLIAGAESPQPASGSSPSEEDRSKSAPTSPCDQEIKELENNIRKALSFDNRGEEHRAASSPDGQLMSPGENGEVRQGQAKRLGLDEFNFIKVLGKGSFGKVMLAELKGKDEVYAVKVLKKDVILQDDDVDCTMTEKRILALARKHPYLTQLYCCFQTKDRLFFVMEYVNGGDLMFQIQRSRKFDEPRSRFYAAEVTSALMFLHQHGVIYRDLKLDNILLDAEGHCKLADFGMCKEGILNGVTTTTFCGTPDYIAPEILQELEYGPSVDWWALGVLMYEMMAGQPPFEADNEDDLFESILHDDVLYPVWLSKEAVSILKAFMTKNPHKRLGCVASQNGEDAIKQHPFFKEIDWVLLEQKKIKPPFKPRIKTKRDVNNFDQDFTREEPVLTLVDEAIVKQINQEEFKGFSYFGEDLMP
Test: Inhibition of Protein kinase C epsilon

O=C(N[C@@H]1CNCCC[C@H]1OC(=O)c1cc(O)c(C(=O)c2c(O)cccc2C(=O)O)c(O)c1)c1ccc(O)cc1 [Acyclic Balanol Analog (-)-1]
IC50: 0.01 µM
